Target: T1, full‐length His6‐JMJD6 (Homo sapiens, UniProt Q6NYC1)
T1 construct: Isolated recombinant full‐length human JMJD6 with a N‐terminal His6‐tag; made in house; host or cells: Escherichia coli BL21 (DE3)
Experiment: JMJD6 SPE–MS inhibition assay (BRD4_511–550 hydroxylation)
Format: biochemical
Details: His6‐JMJD6 0.05 µM, 2OG 100 µM, FAS 2 µM, BRD4_511–550 1 µM, L‐ascorbic acid 100 µM; means of two independent runs (mean ± SD)
Experimental: Co‐substrate concentrations were chosen based on reported SPE–MS kinetic parameters for the JMJD6‐catalyzed BRD4_511–550 monohydroxylation reaction.^[ [56] ^] […] Since JMJD6 has a relatively high 2OG Kmapp , the JMJD6 SPE–MS inhibition assay employs a 2OG concentration which is relatively high compared to most other 2OG oxygenase SPE–MS assays, possibly more accurately reflecting cellular 2OG concentrations.^[ [59] ^, [60] ^] Likely saturating concentrations of LAA (100 µM) and FAS (2 µM) were used.
JMJD6 catalyzes oxidation of BRD4_511–550 to give multiple hydroxylation products,^[ [56] ^] an observation potentially complicating data analysis.
Isolated recombinant full‐length human JMJD6 with a N‐terminal His6‐tag was produced in Escherichia coli BL21 (DE3) cells and purified as reported.^[ [1] ^, [56] ^] […] Purified His6‐JMJD6 was stored at −78 °C; fresh aliquots were used for all JMJD6 assays.
DMSO and 2,4‐PDCA (final assay concentration: 500 µM) were used as negative and positive inhibition controls, respectively. Each reaction was performed in technical duplicates in adjacent wells of the assay plates. […]
The plates were centrifuged (1000 rpm, 5 s) and incubated for 15 min at ambient temperature. […] The plates were then centrifuged (1000 rpm, 30 s) and analyzed by MS. […]

O=C(O)CC(C(=O)O)C(O)C(=O)O (stereo not shown) [Isocitrate] was tested, and the IC50 was greater than 50 µM.
